Laboratory results: US20150253305A1, “METHODS OF IDENTIFYING COMPOUNDS FOR TREATING DEPRESSION AND OTHER RELATED DISEASES” (NORTHWESTERN UNIVERSITY, priority 2012, published 2015)

Tests used:
[1] = test system: Sprague-Dawley rats; assay: Open field locomotor activity (line crosses); conditions: ketamine 10 mg/kg SC; GLYX-13 10 mg/kg IV
[2] = test system: Schaffer collateral-CA1 synapses; assay: Ex vivo LTP at Schaffer collateral-CA1 synapses; conditions: 24 hrs post dosing; GLYX-13 3 mg/kg IV, ketamine 10 mg/kg IV

CNC1(c2ccccc2Cl)CCCCC1=O (centres unmarked) [Ketamine, ketamine]
locomotor activity in the open field as measured by line crosses [1]: reduced locomotor activity
magnitude of ex vivo long-term potentiation (LTP) at Schaffer collateral-CA1 synapses [2]: enhances the magnitude of ex vivo long-term potentiation (LTP)
